Screens (PubChem)
Compounds with a hit are over-represented: about 1.2% of the library has one in this group of screens.
Statin myotox sup: protects C2C12 myotubes from simvastatin toxicity | actives 0.78% (n = 330,000) | AID 602340 | ATP luminescence, 48 h; scaled: DMSO 0, geranylgeraniol control 100 | rescue of ATP level, % at 7.49 µM;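 active means mean ATP rescue above about 67%, or every replicate alone reaching that limit, limit read from the data, passing the limit was not always enough; inconclusive means no clear call, values can overlap the other calls; inactive means mean under the limit and some replicate under it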;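 further: myotubes were challenged with 10 µM simvastatin during compound exposure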
miR122 inh: miR-122 inhibition in Huh7 cells; Huh7 miR-122 Renilla luciferase sensor, 48 h; neutral wells = 0, positive control = 100; activation (reporter increase), % at 12.5 µM; actives 0.3% (n = 340,000); AID 602342;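 active means mean replicate activation score at least 90 and every replicate individually at or above 90; inconclusive means only one of the two criteria met; inactive means neither criterion met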;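 further: higher luciferase means less miR-122 activity so hits act as miR-122 inhibitors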
Yeast UUG start: modulators of yeast start codon fidelity, primary screen, whole organism, S. cerevisiae, single point, plate reader | AID 602363, 2012 | S. cerevisiae UUG-firefly luciferase reporter, luminescence/redox ratio | activity score, % at 18.7 µM | hit rate 0.13% among 350,000;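 active = replicate mean at a twofold rise or more, about +100% in these data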;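 also: firefly luciferase made from a UUG start codon reports start codon fidelity; reporter light over untreated wells divided by growth signal over untreated wells; some hits fall short of that in this replicate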
Cneo AK release: Cryptococcus neoformans lysis via adenylate kinase release; C. neoformans lysis, adenylate kinase release luminescence, 4 h; normalised: neutral wells 0, clomiphene wells 100; actives 0.2% (n = 360,000); lysis activity, % at 15 µM; AID 651654;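 active means mean lysis activity across replicates of at least 80%, whatever share of replicates individually reach that level; inactive means mean lysis activity below 80%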
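Material: C. neoformans cells; Schedule: 4 h static compound exposure, 37 °C, read 1 h post-reagent; Measured by: adenylate kinase release luminescence; Read-out: signal increase indicating cell lysis; Controls: Clomiphene as positive lysis control.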
Glyco luc inh: N-linked glycosylation inhibition; AID 588692; D54 ERlucT glycosylation luciferase reporter, 24 h; percent of 100 nM tunicamycin response; actives 0.23% (n = 360,000); reporter increase, % at 12.5 µM;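 active means mean luciferase reporter signal, scaled so untreated is 0 and the glycosylation-blocking control 100, at or above a set limit in every replicate; inconclusive means mean reaches the limit but not every replicate does; inactive means mean below the limit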;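 further: luciferase carries N-glycosylation sites so blocking glycosylation raises the light; 0% = median of neutral control wells and 100% = median of 100 nM tunicamycin wells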
Active calls of the source: *; u = inconclusive; x = no result given; + = active, no number; [ ] = dose if it differs, or a comment.

Screens in order – Cneo AK release | Glyco luc inh | Statin myotox sup | miR122 inh | Yeast UUG start
1	OC(c1ccc(OCc2ccccc2)cc1)c1nnc(-c2ccccc2)o1 (stereo not drawn)
→ 7.5 | -3.0 | x | 0.2 | -20.4
2	NC(CC(=O)O)c1cccc(OCc2ccccc2)c1 (stereo not drawn)
→ 7.7 | 0.8 | 66.1* | -7.1 | -16.3
3	OC(c1cccc(OCc2ccccc2)c1)c1nnc(-c2ccccc2)o1 (stereo not drawn)
→ -2.0 | -4.0 | 145.8* | -12.1 | 0.8
4	O=C(O)CC(NC(=O)OCc1ccccc1)c1ccccc1 (stereo not drawn)
→ -1.2 | 0.1 | 93.3* | 1.2 | -21.6
5	C[C@H](O)C#Cc1ccc([C@H]2[C@H](CO)N3CCCCN(C(=O)Nc4ccccc4)C[C@@H]23)cc1
→ 0.4 | x | 7.0 | 1.5[16.7 µM] | 5.8
6	Cc1cc(NC(=O)CSc2nc3sc(C)c(C)c3c(=O)n2C2CCCC2)no1
→ -3.2 | 27.4* | -9.5 | -5.1 | -8.3
7	C/C(NC(=O)c1cccc(F)c1)=C1/C(=O)C[C@@H]2[C@H]1C2(C)C
→ x | 0.1 | 127.5* | 0.8 | x
8	Cc1noc(C)c1S(=O)(=O)Nc1ccc2c(c1)C(=O)N([C@H](C)CO)C[C@H](C)[C@@H](CN(C)CC1CCCCC1)OCCCC[C@@H](C)O2
→ -2.7 | x | 10.6 | 1.6[16.7 µM] | 8.1
9	CCC1=NN(C(=O)c2ccccc2O)C(O)(c2ccccc2)C1 (stereo not drawn)
→ -2.1 | -3.7 | 0.3 | + | -32.3
10	CCC1=NN(C(=O)c2ccccc2Br)C(O)(c2ccc(Br)cc2)C1 (stereo not drawn)
→ -1.9 | -3.8 | x | x | 5.5
11	O=C(CC1C(=O)OCN1C(=O)OCc1ccccc1)OCC(=O)c1ccccc1 (stereo not drawn)
→ 11.2 | -0.9 | 102.7* | 1.0 | -26.6
12	O=C(O)CC1C(=O)OCN1C(=O)OCc1ccccc1 (stereo not drawn)
→ 0.7 | 1.0 | -4.9 | -0.9 | -12.3
13	O=C(Cn1cncn1)NCCCc1ccccc1
→ x | 2.5 | -11.2 | -0.7 | x
14	CC(C)c1ccc(C(=O)N/N=C/c2cccc(Cl)c2Cl)cc1
→ -3.6 | 0.0 | 112.5* | 4.4 | -19.7
15	C[C@@H]1CN([C@H](C)CO)C(=O)c2cc(C3=CCCC3)cnc2O[C@@H]1CN(C)C(=O)Cc1ccncc1
→ -5.2 | x | 43.8 | -8.8[16.7 µM] | -3.8
16	Cc1ccc(CSc2nnc3nc(C)cc(C)n23)cc1
→ 2.1 | 0.7 | 138.9* | -3.3 | -12.9
17	CCSc1nnc2nc(C)cc(C)n12
→ 1.4 | 1.7 | x | 2.3 | -12.5
18	C[C@@H]1CN([C@@H](C)CO)S(=O)(=O)c2ccc(-c3ccccc3F)cc2O[C@@H]1CN(C)CC1CC1
→ -3.6 | x | -71.6 | x | 0.0
19	CN(C)S(=O)(=O)c1ccc(N2CCCC2)c(C(=O)Nc2nccs2)c1
→ -0.7 | 78.9* | -2.1 | x | -2.1
20	CCc1cccc(NC(=O)c2cc(S(=O)(=O)N(C)C)ccc2N2CCCC2)c1
→ 6.1 | 38.6* | 0.2 | -0.7 | -3.2
21	Cc1cnc(NC(=O)c2cc(S(=O)(=O)N(C)C)ccc2N2CCCC2)s1
→ -1.9 | 97.8* | -6.5 | -9.0 | -22.5
22	COC(=O)c1cc2c(n1S(=O)(=O)c1ccc(C)cc1)C(=O)C(=O)c1[nH]cc(C(=O)OCc3ccccc3)c1-2
→ x | -20.7 | x | -10.6 | x
23	C[C@@H]1CN([C@@H](C)CO)C(=O)c2cc(NC(=O)CCCN(C)C)ccc2O[C@@H](C)CCCCO[C@@H]1CN(C)Cc1ccncc1
→ -2.2 | x | 20.0 | 0.1[16.7 µM] | -18.9
24	C[C@@H]1CN([C@@H](C)CO)C(=O)Cc2cc(N(C)C)ccc2O[C@H]1CN(C)Cc1ccc(C(=O)Nc2ccccc2N)cc1
→ -2.4 | x | 38.9 | 113.2*[16.7 µM] | -1.5
25	C[C@@H]1CN([C@@H](C)CO)C(=O)Cc2cc(N(C)C)ccc2O[C@@H]1CN(C)Cc1ccc(C(=O)Nc2ccccc2N)cc1
→ -11.8 | x | -143.8 | 138.3*[16.7 µM] | 4.6
26	C[C@H](CO)N1C[C@H](C)[C@H](CN(C)Cc2ccc(C(=O)Nc3ccccc3N)cc2)Oc2ccc(NC(=O)C3CC3)cc2CC1=O
→ -5.0 | x | 7.7 | 165.3*[16.7 µM] | -0.8
27	C[C@H](CO)N1C[C@H](C)[C@@H](CN(C)Cc2ccc(C(=O)Nc3ccccc3N)cc2)Oc2ccc(NC(=O)C3CC3)cc2CC1=O
→ 3.1 | x | 26.7 | 8.1[16.7 µM] | 20.0
28	C[C@H]1CN([C@@H](C)CO)C(=O)Cc2cc(N(C)C)ccc2O[C@@H]1CN(C)Cc1ccc(C(=O)Nc2ccccc2N)cc1
→ 6.0 | x | 36.3 | 26.7[16.7 µM] | 1.4
29	C[C@@H]1CN([C@H](C)CO)C(=O)c2cc(NS(=O)(=O)c3ccc(Cl)cc3)ccc2O[C@@H](C)CCCCO[C@H]1CN(C)C(=O)Nc1ccc(F)cc1
→ 5.9 | x | x | -16.2[16.7 µM] | -6.0
30	CC(C)NC(=O)N(C)C[C@@H]1Oc2ccc(NC(=O)Cc3cn(C)c4ccccc34)cc2CC(=O)N([C@@H](C)CO)C[C@@H]1C
→ -0.9 | x | 3.4 | 9.9[16.7 µM] | x

Fetched one by one from above (five):
Screens in order – Cneo AK release | Glyco luc inh | Statin myotox sup | miR122 inh | Yeast UUG start
19	CN(C)S(=O)(=O)c1ccc(N2CCCC2)c(C(=O)Nc2nccs2)c1
→ -0.7 | 78.9* | -2.1 | x | -2.1
9	CCC1=NN(C(=O)c2ccccc2O)C(O)(c2ccccc2)C1 (stereo not drawn)
→ -2.1 | -3.7 | 0.3 | + | -32.3
30	CC(C)NC(=O)N(C)C[C@@H]1Oc2ccc(NC(=O)Cc3cn(C)c4ccccc34)cc2CC(=O)N([C@@H](C)CO)C[C@@H]1C
→ -0.9 | x | 3.4 | 9.9[16.7 µM] | x
20	CCc1cccc(NC(=O)c2cc(S(=O)(=O)N(C)C)ccc2N2CCCC2)c1
→ 6.1 | 38.6* | 0.2 | -0.7 | -3.2
13	O=C(Cn1cncn1)NCCCc1ccccc1
→ x | 2.5 | -11.2 | -0.7 | x

Continued.
Screens in order – Cneo AK release | Glyco luc inh | Statin myotox sup | miR122 inh | Yeast UUG start
31	CN1/C(=C/C=C(/C#N)C(N)=O)C(C)(C)c2ccccc21
→ 1.2 | 25.7* | x | 12.5 | -10.1
32	CN1/C(=C\C=C(/C#N)C(=O)Nc2ccccc2F)C(C)(C)c2ccccc21
→ x | -1.9 | 0.7 | -11.0 | x
33	Cc1ccc(N2C(N)=NC(N)=NC2(C)C)c(C)c1
→ 0.1 | 0.0 | 110.3* | -0.3 | -19.4
34	C=CCOc1ccccc1C(=O)/C=C1/C(=O)Nc2ccccc21
→ 0.8 | 31.6* | 41.9 | 9.8 | 0.3
35	COc1ccc(C(=O)/C=C2/C(=O)Nc3ccccc32)c(OC)c1
→ x | 33.2* | x | x | x
36	COc1ccc(C(=O)/C=C2/C(=O)Nc3ccccc32)cc1
→ -4.1 | u | 24.1 | -0.7 | 0.6
37	COc1ccc(C(=O)/C=C2/C(=O)Nc3ccccc32)cc1OC
→ -0.9 | 28.8* | 8.6 | 8.2 | -1.1
38	C=CCOc1ccc(C(=O)/C=C2/C(=O)Nc3ccccc32)cc1
→ -4.1 | 10.8 | 10.7 | 2.2 | -11.7
39	NC(=O)COc1ccc(C(=O)/C=C2/C(=O)Nc3ccccc32)cc1
→ -0.4 | 21.8 | -4.4 | -4.1 | -10.4
40	CCOc1cc(C(=O)Nc2ccc(C)cc2C)ccc1OCC(=O)N1CCCCC1
→ x | -2.9 | x | x | x
41	CCOc1cc(C(=O)Nc2cc(C)ccc2OC)ccc1OCC(=O)N1CCCCC1
→ 1.9 | -1.7 | 115.0* | -7.0 | -27.3
42	CC(CSC(=O)c1ccccc1)C(=O)N1c2ccccc2CC1C(=O)O (stereo not drawn)
→ 0.0 | 2.2 | 8.7 | 6.4 | -8.3
43	C[C@@H]1CN([C@H](C)CO)C(=O)c2cc(NC(=O)Nc3ccc(C(F)(F)F)cc3)ccc2O[C@H]1CN(C)Cc1ccc(-c2ccccc2)cc1
→ -3.3 | x | x | 1.1[16.7 µM] | 16.1
44	C[C@H](CO)N1C[C@H](C)[C@@H](CN(C)Cc2ccc(-c3ccccc3)cc2)Oc2ccc(NC(=O)Nc3ccc(C(F)(F)F)cc3)cc2C1=O
→ 98.7* | x | x | -4.1[16.7 µM] | 8.2
45	COc1ccc(NC(=O)Nc2ccc3c(c2)C(=O)N([C@@H](C)CO)C[C@H](C)[C@H](CN(C)Cc2ccc(C(F)(F)F)cc2)O3)cc1
→ 39.9 | x | -4.9 | 149.5*[16.7 µM] | 32.0
